Earlier results as cited in PMC5437307 (2017).
pKd: −log10 of the molar value.

Protein sequences, listed by entry. Tags and fused reporters are not part of them. Residues count along the entry.
UniProt P01589, 22-240, chain 1 of 3: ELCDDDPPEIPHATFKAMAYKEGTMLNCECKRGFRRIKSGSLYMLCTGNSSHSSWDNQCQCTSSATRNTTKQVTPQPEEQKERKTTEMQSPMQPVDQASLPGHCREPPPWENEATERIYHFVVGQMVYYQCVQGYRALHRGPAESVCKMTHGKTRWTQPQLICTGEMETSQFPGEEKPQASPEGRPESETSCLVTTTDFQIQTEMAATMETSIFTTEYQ
UniProt P60568, 21-153: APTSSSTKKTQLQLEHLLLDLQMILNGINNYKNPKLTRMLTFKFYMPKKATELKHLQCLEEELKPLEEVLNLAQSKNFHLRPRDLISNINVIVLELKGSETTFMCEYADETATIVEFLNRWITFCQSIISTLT

Molecular target: IL-2Rαβγc (Homo sapiens) (UniProt P01589)
Settings: cited from earlier work

Question: With IL-2 (from UniProt P60568) as the substance, how does the pKd read?
Answer: The pKd was 11.00.
